Reference: ChEMBL document CHEMBL1148299 (J Med Chem, 2004)

The chains behind the UniProt entries cited, without tags or fusion partners.
UniProt P51681, whole entry: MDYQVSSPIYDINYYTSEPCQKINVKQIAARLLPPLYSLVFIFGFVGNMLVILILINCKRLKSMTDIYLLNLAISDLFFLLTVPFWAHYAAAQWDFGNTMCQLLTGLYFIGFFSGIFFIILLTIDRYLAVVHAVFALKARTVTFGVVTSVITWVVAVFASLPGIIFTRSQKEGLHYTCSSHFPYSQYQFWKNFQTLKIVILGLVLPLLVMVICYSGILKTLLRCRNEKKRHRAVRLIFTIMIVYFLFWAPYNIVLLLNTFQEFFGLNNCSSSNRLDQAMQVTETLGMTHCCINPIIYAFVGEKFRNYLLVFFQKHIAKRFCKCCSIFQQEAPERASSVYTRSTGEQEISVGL

Biological target: C-C chemokine receptor type 5 (Homo sapiens, UniProt P51681)
Test: Antagonistic activity against C-C chemokine receptor type 5
Type: functional

Cc1ncnc(C)c1C(=O)N1CCC(C)(N2CCN([C@@H](C)c3ccc(C(F)(F)F)cc3)[C@@H](C)C2)CC1
Ki: 2.8 nM
